From ChEMBL document CHEMBL3259517, “Synthesis and evaluation of phosphorus containing, specific CDK9/CycT1 inhibitors” (J Med Chem, 2014)

Key:
MT4 [1] = experiment: Cytotoxicity against human MT4 cells assessed as cell viability at 2500 nM after 7 days by MTT assay relative to control; type: cell-based; conditions: mt4, 168 h, 2.5 µM
MT4 [2] = experiment: Cytotoxicity against human MT4 cells assessed as cell viability at 1250 nM after 7 days by MTT assay relative to control; type: cell-based; conditions: mt4, 168 h, 1.25 µM

SMILES | Activity (MT4 [1]) | Activity (MT4 [2])
CCOP(=O)(CC)Oc1cc(Nc2cc(-c3cccc(N)c3)ncn2)ccc1C (stereo not drawn) | 76% | 72%
CCOP(=O)(CC)Nc1cc(Nc2cc(-c3ccccc3OC)ncn2)ccc1C (stereo not drawn) | 29% | 96%
CCP(=O)(O)Oc1cc(Nc2cc(-c3ccccc3OC)ncn2)ccc1C | 74% | 78%
CCOP(=O)(CC)Oc1cc(Nc2cc(-c3ccccc3OC)ncn2)ccc1C (stereo not drawn) | 108% | 78%
